For this test, the target named is T1, CB1 receptor (Rattus norvegicus, UniProt P20272).
T1 construct: brain membranes were prepared from frozen rat brains; from tissue; host or cells: membranes from frozen rat brains
The class given is binding.

By UniProt entry, the sequences of proteins in these tests, tags left out.
UniProt P20272, whole entry: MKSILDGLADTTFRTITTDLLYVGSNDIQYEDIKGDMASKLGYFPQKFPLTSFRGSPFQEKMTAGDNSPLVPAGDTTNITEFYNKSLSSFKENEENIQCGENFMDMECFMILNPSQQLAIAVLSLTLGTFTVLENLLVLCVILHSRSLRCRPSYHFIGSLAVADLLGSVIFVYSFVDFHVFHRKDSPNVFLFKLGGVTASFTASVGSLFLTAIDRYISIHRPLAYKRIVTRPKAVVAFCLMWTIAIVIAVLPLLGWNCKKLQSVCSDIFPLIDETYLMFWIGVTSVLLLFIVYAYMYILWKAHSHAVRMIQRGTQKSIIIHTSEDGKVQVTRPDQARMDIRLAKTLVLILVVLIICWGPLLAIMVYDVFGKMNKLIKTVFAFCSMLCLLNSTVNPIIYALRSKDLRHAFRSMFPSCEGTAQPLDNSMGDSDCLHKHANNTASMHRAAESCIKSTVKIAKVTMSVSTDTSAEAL

As to `CCCCCCCCCCCCCCCCS(=O)(=O)F` [palmitylsulfonyl fluoride], the “binding affinity for the CB1 receptor relative to anandamide” value is given as “about 10 times lower”. The “efficiency of binding to CB1 receptor relative to arachidonoyl ethanolamide” value (FIG. 3) is reported as “less than 10%”.

The values above are taken from US6579900B2, “Anandamide amidase inhibitors as analgesic agents” (priority 1996, dated 2003).
